Experimental data: ChEMBL document CHEMBL5154896, “Discovery of a Novel Class of d-Amino Acid Oxidase Inhibitors Using the Schrödinger Computational Platform” (J Med Chem, 2022)

Sequences of proteins named here, by UniProt entry; tags and fusion partners are left off. A change or cut given only in a name is not applied to a line headed by its entry.
UniProt P14920: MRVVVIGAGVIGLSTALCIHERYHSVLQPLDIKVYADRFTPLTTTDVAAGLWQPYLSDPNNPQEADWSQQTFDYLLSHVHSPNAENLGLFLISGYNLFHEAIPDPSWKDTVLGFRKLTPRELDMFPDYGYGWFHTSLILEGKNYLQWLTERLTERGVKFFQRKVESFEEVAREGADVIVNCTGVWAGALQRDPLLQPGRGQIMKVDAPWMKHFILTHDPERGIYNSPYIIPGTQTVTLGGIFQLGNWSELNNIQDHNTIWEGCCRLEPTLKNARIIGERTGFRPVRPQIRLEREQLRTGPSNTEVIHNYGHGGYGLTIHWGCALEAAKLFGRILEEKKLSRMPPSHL

What was measured:
D-amino-acid oxidase [1] = target: T1, D-amino-acid oxidase (Homo sapiens, UniProt P14920); assay: Inhibition of full length human DAO transfected in CHO-K1 cells incubated for 30 mins by Amplex red and horseradish peroxidase based fluorescence assay; format: cell-based
D-amino-acid oxidase [2] = target: T1, D-amino-acid oxidase; assay: Inhibition of recombinant full length human DAO preincubated with compound for 20 mins measured after 4 hrs by Amplex red and horseradish peroxidase based fluorescence assay

SMILES	EC50 (D-amino-acid oxidase [1]) [nM]	IC50 (D-amino-acid oxidase [2]) [nM]
O=c1[nH]nc(Cc2ccc(Cl)cc2)cc1O	29	17
O=c1[nH]cc(SCc2ccc(C(F)(F)F)cc2)[nH]c1=O	420	91
O=c1[nH]cc(SCc2ccc(S(F)(F)(F)(F)F)cc2)[nH]c1=O	380	97
O=c1[nH]cc(CSc2ccc(C(F)(F)F)cc2)[nH]c1=O	600	92
CS(=O)(=O)c1ccc(SCc2c[nH]c(=O)c(=O)[nH]2)cc1	830	82
O=c1[nH]cc([C@@H]2COc3cc(COCc4cccc(F)c4)ccc3S2)[nH]c1=O	–	8
C[C@@]1(c2c[nH]c(=O)c(=O)[nH]2)COc2cc(Cl)ccc2S1	95	9
N#Cc1ccc(SCc2c[nH]c(=O)c(=O)[nH]2)cc1Cl	880	98
N#Cc1ccc(CSc2c[nH]c(=O)c(=O)[nH]2)cc1F	200	54
